Source: paper doi:10.1101/2020.10.13.337410v3, “Agonist efficiency from concentration-response curves: structural implications and applications” (biorxiv, 2021)

The chains behind the UniProt entries cited, without tags or fusion partners. Where a name states a change or a piece, a line headed by the entry shows the natural chain unless it says otherwise. Residues count along the entry.
UniProt P02716, 25-520: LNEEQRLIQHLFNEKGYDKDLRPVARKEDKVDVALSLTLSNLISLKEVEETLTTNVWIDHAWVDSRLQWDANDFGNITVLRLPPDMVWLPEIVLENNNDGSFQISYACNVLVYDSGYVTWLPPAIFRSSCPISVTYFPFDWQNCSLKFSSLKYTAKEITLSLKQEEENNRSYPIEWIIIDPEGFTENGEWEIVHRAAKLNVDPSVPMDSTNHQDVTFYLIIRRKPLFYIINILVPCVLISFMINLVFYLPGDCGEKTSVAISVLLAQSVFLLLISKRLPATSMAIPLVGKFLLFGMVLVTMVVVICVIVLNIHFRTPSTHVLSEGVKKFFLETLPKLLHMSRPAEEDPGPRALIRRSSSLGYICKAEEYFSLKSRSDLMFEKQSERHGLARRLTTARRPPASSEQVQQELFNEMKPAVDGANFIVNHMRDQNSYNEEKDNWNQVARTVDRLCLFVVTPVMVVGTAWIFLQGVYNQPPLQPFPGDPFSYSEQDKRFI
UniProt P20782, 21-493: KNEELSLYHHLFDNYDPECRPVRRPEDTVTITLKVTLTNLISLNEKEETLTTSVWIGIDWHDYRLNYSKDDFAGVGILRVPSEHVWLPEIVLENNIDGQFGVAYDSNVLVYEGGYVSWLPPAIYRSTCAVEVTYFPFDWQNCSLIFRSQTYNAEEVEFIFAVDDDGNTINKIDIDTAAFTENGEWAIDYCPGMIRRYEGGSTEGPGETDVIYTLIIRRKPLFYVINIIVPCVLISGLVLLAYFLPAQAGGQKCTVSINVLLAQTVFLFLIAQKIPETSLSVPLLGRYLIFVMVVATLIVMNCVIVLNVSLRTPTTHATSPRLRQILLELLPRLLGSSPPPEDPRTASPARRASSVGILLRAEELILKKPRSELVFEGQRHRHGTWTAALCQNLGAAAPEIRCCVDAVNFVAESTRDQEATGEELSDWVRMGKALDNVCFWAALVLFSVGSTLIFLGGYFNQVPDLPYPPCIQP

Biological target: T1, adult-type mouse AChR (α1-GFP, β, δ, ε), whole-cell (Mus musculus, UniProt P02716+P04756+P20782)
T1 construct: gene Chrna1; alpha1 with GFP encoded between M3 and M4; transient expression in HEK293, GFP-sorted cells; pentamer; no background mutations; with Acetylcholine receptor subunit beta
Test: automated whole-cell patch clamp (IonFlux […]), concentration-response
Format: cell-based

Work on Clc1ccc(C2CC3CCC2N3)cn1 (stereo not shown) [Ebt] yielded an EC50 of 8.42 ± 1 µM.
